This assay deals with T1, Polyamine deacetylase HDAC10 (Homo sapiens, UniProt Q969S8).
T1 sequence (Q969S8 whole entry): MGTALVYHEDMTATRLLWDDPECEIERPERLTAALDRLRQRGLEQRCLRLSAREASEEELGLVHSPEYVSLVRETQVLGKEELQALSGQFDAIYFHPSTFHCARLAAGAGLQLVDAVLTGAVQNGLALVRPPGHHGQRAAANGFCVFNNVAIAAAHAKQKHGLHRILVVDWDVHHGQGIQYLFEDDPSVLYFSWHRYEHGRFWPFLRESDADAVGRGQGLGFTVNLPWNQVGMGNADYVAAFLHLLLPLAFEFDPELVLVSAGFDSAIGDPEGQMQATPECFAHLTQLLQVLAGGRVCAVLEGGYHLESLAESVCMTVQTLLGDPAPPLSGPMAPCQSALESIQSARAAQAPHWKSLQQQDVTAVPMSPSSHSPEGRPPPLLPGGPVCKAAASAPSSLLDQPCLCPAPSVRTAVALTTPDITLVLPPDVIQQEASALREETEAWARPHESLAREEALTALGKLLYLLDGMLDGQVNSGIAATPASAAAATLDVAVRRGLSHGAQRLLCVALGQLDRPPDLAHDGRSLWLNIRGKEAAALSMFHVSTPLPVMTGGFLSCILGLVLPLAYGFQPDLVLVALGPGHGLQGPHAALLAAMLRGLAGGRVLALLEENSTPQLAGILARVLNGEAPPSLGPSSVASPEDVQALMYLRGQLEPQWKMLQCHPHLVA

SMILES strings stand for the structures.

Consider `O=C(CCCCCCC(=O)Nc1ccccc1)NO` [VORINOSTAT], for which inhibition was half-maximal at 47.5 nM (IC50).
